Source: article PMC7384330 (Neuropharmacology, 2018)

Molecular target: T1, human Avpr1b vasopressin receptor (Homo sapiens, UniProt P47901)
T1 sequence (P47901 1-424): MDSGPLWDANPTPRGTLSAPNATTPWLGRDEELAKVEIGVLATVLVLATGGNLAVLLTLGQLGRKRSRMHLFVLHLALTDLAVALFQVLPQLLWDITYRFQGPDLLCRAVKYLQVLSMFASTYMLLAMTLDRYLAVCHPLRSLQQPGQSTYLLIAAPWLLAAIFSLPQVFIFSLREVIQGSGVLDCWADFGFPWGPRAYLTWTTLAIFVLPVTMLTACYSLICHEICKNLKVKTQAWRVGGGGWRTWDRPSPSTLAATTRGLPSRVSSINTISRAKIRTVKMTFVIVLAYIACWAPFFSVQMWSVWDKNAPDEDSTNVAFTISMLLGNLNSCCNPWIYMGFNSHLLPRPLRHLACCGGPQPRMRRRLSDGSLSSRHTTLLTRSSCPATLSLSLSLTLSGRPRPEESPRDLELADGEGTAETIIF
Experiment: Calcium mobilization assay, CHO-V1b
Assay type: cell-based
Settings: ratio of EC50, calcium mobilization

selectivity for human OXTR versus human Avpr1b: 24 fold
Compound: Cc1cc(C(=O)N2Cc3cnn(C)c3Nc3ccccc32)ccc1CNC(=O)N1CCC[C@H]1C(=S)N1CCCN(C)CC1 [TC-OT-39, (2S)-N-[[4-[(4,10-Dihydro-1-methylpyrazolo[3,4-b][1,5]benzodiazepin-5(1H)-yl)carbonyl]-2-methylphenyl]methyl]-2-[(hexahydro-4-methyl-1H-1,4-diazepin-1-yl)thioxomethyl]-1-pyrrolidinecarboxamide]
